Sequences of proteins named here, by UniProt entry; tags and fusion partners are left off. A change or cut given only in a name is not applied to a line headed by its entry.
UniProt P49841: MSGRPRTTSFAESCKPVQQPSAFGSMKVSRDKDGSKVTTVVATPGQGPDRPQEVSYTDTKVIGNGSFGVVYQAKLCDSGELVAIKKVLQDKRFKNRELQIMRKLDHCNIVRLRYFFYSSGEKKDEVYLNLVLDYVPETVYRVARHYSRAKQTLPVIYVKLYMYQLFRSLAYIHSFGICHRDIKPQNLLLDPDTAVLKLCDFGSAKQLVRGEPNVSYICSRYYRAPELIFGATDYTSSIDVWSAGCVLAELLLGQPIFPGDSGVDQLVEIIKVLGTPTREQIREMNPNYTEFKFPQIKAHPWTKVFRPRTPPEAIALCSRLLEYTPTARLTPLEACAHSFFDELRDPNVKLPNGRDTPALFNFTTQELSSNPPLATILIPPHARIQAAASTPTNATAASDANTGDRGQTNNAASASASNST

According to the kinase profiling compilation of Christmann-Franck et al. (2016):

Target: GSK3B (human) (UniProt P49841)
Assay: radiometric filter-binding kinase assay
Settings: ATP 100 µM

O=C1Nc2ccccc2/C1=C1\Nc2ccccc2\C1=N/O
IC50: 190 nM
